Reference: publication PMC10522769

Test system: NCCCC[C@H](N)C(=O)O
Experiment: purified protein
Conditions: 3 mM ATP, 15 mM MgCl2, 150 mM hydroxylamine, HEPES pH 7.5, 37 °C, 5 µM enzyme

Substance: PosA adenylation domain (Acinetobacter baumannii AB307-0294)
- Km: 8.59 ± 0.68 mM
- Vmax: 8.46 µM/min
- kcat: 0.0282 s⁻¹
- kcat/Km: 3.28 M⁻¹ s⁻¹
